Experimental findings from paper PMC4619679 are described below.

In general, stoichiometry N refers to a count of units in the complex or per binding partner.

This assay has as its target T1, Full-length human Dnmt1 (human), P26358.
T1 chain: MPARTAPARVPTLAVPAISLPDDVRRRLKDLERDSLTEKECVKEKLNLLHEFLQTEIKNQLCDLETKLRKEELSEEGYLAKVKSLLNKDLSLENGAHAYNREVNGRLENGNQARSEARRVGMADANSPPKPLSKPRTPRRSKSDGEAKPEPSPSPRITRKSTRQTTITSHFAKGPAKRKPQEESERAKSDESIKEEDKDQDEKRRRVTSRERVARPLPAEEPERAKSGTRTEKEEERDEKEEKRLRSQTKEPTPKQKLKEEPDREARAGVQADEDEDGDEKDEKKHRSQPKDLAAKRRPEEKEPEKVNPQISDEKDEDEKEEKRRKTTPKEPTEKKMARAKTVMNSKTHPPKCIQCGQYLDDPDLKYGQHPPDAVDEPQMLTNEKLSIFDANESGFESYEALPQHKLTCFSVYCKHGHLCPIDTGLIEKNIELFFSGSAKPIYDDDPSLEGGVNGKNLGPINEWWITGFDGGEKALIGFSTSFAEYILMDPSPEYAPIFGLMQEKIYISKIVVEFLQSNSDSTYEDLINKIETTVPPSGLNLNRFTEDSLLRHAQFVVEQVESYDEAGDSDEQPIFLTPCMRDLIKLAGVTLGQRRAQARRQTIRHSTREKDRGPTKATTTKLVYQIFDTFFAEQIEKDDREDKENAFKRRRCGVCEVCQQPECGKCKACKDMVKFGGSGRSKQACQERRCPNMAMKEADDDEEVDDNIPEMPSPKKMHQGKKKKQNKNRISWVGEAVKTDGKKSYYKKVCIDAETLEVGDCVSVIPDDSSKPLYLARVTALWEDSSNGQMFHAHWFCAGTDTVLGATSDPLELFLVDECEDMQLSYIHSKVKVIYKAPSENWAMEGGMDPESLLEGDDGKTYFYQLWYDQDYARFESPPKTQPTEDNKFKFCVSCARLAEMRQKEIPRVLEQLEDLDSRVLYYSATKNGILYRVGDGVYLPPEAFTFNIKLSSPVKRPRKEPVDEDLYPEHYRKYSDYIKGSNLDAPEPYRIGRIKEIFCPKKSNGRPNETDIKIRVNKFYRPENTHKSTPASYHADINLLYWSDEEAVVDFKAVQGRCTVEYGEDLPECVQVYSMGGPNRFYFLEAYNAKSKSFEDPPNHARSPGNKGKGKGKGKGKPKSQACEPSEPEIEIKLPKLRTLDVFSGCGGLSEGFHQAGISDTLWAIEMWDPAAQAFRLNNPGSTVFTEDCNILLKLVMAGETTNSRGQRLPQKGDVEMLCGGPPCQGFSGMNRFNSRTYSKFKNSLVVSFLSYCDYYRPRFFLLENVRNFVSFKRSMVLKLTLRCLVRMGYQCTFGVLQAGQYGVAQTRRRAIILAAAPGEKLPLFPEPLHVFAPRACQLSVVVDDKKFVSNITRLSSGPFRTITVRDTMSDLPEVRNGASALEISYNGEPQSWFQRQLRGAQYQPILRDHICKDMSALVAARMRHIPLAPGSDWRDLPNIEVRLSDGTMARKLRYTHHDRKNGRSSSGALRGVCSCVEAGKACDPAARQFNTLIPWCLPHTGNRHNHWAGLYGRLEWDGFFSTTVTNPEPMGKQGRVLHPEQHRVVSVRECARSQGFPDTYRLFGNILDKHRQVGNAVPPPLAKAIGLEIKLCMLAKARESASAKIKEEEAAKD
Put plainly: SEC; gelfiltration chromatography of recombinant Dnmt1 under different running conditions; compared with Dnmt1 denatured by SDS and heat, which gave forms of the apparent mass of a monomer. The settings on record: remark: other sources report otherwise. Background: Size exclusion chromatography separates by hydrodynamic size, large species first.

B1: Full-length human Dnmt1, P26358 1-1616 (enzyme)
chain: T1 chain
Turning to B1, the stoichiometry N amounted to 2.
